Source: ChEMBL document CHEMBL4024791, “Identification of Morpholino-2H-pyrido[3,2-b][1,4]oxazin-3(4H)-ones as Nonsteroidal Mineralocorticoid Antagonists” (J Med Chem, 2018)

Molecular target: T1, Mineralocorticoid receptor (Homo sapiens, UniProt P08235)
T1 sequence (P08235 whole entry): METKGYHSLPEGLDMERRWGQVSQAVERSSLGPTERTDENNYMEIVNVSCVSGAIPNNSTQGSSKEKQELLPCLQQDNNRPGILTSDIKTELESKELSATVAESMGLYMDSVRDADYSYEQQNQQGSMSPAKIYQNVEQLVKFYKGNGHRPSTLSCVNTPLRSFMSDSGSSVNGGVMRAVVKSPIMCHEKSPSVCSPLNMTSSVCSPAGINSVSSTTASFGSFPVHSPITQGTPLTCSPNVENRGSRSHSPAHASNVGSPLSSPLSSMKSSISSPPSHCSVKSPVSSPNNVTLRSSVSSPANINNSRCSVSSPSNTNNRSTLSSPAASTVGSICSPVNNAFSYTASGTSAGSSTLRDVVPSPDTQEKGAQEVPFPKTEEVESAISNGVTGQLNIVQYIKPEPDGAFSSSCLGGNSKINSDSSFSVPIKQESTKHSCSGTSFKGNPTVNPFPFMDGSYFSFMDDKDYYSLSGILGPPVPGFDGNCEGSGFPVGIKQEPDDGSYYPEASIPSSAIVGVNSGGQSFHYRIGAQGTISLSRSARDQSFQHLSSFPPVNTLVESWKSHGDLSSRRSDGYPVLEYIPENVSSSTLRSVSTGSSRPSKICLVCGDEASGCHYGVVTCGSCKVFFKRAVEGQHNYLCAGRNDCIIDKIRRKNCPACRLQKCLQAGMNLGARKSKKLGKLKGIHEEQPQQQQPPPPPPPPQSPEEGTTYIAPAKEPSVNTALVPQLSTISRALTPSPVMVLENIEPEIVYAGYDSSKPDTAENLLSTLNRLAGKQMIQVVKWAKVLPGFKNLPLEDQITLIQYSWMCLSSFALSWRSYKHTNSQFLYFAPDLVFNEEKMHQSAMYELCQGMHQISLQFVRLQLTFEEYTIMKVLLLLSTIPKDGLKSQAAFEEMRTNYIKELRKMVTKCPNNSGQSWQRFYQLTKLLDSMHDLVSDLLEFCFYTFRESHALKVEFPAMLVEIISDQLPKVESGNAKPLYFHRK

| Compound | IC50 [nM] |
| --- | --- |
| C[C@@H]1CN(c2ccc3c(n2)NC(=O)CO3)[C@H](c2cccc(F)c2)CO1 | 19 |
| C[C@@H]1CN(c2ccc3c(n2)NC(=O)CO3)[C@H](c2ccc(F)cc2)CO1 | 39 |
